Test results from publication PMC9666555, “Genuine selective caspase-2 inhibition with new irreversible small peptidomimetics” (Cell Death & Disease, 2022).

Columns and labels:
[1] = target: T1, human active recombinant Caspase-3 (Homo sapiens, UniProt P42574); assay: In vitro caspase activity and inhibition assay (IC50), Caspase-3; assay type: biochemical
T1 sequence (P42574 29-175 limits assumed): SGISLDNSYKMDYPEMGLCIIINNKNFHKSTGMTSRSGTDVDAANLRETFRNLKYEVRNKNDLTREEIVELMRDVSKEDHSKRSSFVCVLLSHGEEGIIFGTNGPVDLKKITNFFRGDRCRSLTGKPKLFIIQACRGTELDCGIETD
T1 sequence (P42574 176-277 limits assumed): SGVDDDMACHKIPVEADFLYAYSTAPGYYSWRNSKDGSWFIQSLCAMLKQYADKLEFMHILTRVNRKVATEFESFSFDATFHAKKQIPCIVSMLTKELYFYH

[2] = target: T2, recombinant human Casp3 (Homo sapiens, UniProt P42574); assay: Enzyme mechanistic studies (Ki, k3, k3/KI), Caspase-3; assay type: biochemical; conditions: reversible competitive inhibitors, Lineweaver-Burk; read-out: Enzyme assays Casp3 Ki
T2 sequence (P42574 29-175 limits assumed): T1 sequence (P42574 29-175 limits assumed)
T2 sequence (P42574 176-277 limits assumed): T1 sequence (P42574 176-277 limits assumed)
Protocol: For reversible inhibitors, the mechanisms of inhibition were determined by varying substrate and inhibitor concentrations and using Lineweaver−Burk representations to determine the inhibition constants Ki of competitive inhibitors (Ki = [E][I]/[EI]). For suicide inhibitors, inactivation can be represented by the minimum kinetic scheme (Eq. 2), where E and I are the free forms of enzyme and inhibitor, E * I a kinetic chimera of the Michaelis complex and E − I the covalent complex (inactivated enzyme).2 E+I⇄KIE*I→k3E−I
KI and k3 are the kinetic constants characterizing the inactivation process and the k3/KI ratio is an index of the inhibitory potency. The first-order rate constant, k3, and the apparent dissociation constant, KI, were determined for Caspase-2 and -3 using the progress curve method. Briefly, the enzyme activities were measured continuously for 120 min. To determine the kinetic parameters, progress curves were obtained at several inhibition concentrations using fixed substrate concentration. […] The ratio k3/KI was obtained by fitting the experimental data to the equations (F.U., fluorescence unit):3 F.U.=∫0tvidt+F.U0−vo×e^−π×t/π+F.U.0 4 π=k3×[I]^′/KI+[I]^′ 5 [I]^′=[I]/1+S/KM […]

Structure (SMILES): CC(=O)N[C@@H](CC(=O)O)C(=O)N[C@@H](CCC(=O)O)C(=O)N[C@H](C(=O)N[C@H](C=O)CC(=O)O)C(C)C [DEVD-CHO, Ac-DEVD-CHO]
- IC50 [1]: 1 nM
- Ki [2]: 0.2 nM
